# Results reported in paper PMC10825183 (Nature Communications, 2024).
# Legend:
# [1] = biological target: T1, rbHCN4 full-length (FL) (Oryctolagus cuniculus, UniProt Q9TV66); experiment: Whole-cell patch clamp in HEK293T cells, HCN4 full length; assay type: cell-based, rabbit
# T1 construct: The cDNA encoding the full-length rabbit HCN4 was previously cloned in pCI (Promega) mammalian expression vector; expressed in transfected cells; host or cells: HEK293T
# T1 sequence (Q9TV66 1-1175): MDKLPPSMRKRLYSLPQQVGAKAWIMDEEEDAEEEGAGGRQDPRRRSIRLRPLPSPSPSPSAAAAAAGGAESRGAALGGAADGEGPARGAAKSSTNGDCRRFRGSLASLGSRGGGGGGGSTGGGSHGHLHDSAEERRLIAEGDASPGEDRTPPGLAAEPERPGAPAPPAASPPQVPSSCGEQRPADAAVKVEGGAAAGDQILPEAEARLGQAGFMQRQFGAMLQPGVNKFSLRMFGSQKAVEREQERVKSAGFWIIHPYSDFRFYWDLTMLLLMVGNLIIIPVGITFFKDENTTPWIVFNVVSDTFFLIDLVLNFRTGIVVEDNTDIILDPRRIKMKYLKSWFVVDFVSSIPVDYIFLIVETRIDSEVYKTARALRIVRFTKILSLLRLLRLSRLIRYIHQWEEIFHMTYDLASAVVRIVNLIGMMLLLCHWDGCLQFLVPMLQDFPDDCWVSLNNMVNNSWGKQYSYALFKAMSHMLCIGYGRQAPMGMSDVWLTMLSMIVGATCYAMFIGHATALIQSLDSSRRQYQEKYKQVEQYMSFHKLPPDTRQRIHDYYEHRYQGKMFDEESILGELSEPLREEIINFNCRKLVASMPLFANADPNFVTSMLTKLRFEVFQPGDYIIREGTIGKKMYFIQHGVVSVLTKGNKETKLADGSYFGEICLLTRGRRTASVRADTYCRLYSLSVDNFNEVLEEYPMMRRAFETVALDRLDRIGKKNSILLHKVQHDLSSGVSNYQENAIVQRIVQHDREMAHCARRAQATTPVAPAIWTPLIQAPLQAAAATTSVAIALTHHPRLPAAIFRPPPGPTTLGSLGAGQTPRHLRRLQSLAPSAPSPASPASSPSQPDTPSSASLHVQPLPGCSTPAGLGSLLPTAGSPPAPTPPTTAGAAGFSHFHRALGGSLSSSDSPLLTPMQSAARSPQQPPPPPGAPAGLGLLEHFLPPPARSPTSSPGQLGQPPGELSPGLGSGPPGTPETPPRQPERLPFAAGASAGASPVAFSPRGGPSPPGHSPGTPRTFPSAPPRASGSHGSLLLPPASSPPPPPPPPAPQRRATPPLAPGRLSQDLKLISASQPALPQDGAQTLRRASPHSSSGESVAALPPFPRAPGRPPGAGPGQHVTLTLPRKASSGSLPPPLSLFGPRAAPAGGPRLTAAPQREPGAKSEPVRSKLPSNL
# [2] = biological target: T2, rbHCN4 ΔE (1-733) (Oryctolagus cuniculus, UniProt Q9TV66); experiment: Whole-cell patch clamp in HEK293T cells, HCN4 ΔE; assay type: cell-based, rabbit
# T2 construct: rbHCN4 ΔE (1-733); expressed in transfected cells; host or cells: HEK293T
# T2 sequence (Q9TV66 1-733): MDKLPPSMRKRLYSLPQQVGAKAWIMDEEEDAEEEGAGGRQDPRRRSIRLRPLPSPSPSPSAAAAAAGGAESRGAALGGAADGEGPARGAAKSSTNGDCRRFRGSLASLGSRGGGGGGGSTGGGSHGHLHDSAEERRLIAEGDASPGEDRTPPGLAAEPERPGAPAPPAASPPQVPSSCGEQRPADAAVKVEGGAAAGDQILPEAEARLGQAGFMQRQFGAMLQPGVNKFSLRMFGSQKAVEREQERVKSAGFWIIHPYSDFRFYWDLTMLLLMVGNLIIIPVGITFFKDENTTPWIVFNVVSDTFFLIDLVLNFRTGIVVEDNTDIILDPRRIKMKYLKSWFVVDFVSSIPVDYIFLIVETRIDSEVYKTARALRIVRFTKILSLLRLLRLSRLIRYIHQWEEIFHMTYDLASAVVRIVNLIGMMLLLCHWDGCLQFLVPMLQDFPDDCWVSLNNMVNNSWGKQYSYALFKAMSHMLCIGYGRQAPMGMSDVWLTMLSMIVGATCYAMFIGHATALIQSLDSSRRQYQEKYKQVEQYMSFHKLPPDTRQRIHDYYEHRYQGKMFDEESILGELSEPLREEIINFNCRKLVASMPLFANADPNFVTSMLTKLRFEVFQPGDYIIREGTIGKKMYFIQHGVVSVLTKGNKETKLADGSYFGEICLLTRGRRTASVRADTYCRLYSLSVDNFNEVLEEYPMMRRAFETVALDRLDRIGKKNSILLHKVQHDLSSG
# [3] = biological target: rbHCN4 ΔC-term (1-758) (Oryctolagus cuniculus, UniProt Q9TV66); settings: 1 µM cAMP
# [4] = biological target: T3, rbHCN4 ΔDE’ (1-723) (Oryctolagus cuniculus, UniProt Q9TV66); settings: 5 µM cAMP
# [5] = biological target: T4, rbHCN4 ΔDE (1-718) (Oryctolagus cuniculus, UniProt Q9TV66); settings: 5 µM cAMP
# [6] = biological target: T5, rbHCN4 D750A (Oryctolagus cuniculus, UniProt Q9TV66, D750A); settings: 5 µM cAMP
# [7] = biological target: T3, rbHCN4 ΔDE’ (1-723); experiment: cell-based
# [8] = biological target: T4, rbHCN4 ΔDE (1-718); experiment: cell-based
# [9] = biological target: T5, rbHCN4 D750A; experiment: cell-based
structure (smiles),measurement,setting,value
"Nc1ncnc2c1ncn2[C@@H]1O[C@@H]2COP(=O)(O)O[C@H]2[C@H]1O [cAMP, Adenosine 3′,5′-cyclic monophosphate]",EC50,[1],1.35 µM
same,V1/2 shift due to cAMP,[1]; 1 µM cAMP,11.4 ± 1.9 mV and 11.4 mV
same,V1/2 shift due to cAMP,[1]; 5 µM cAMP,14.9 ± 2 mV and 14.9 mV
same,EC50,[2],8.6 µM
same,V1/2 shift due to cAMP,[2]; 5 µM cAMP,7 ± 1.9 mV
same,V1/2 shift due to cAMP,[3],12.7 ± 2.1 mV and 12.7 mV
same,V1/2 shift due to cAMP,[4],6.3 ± 1.9 mV
same,V1/2 shift due to cAMP,[5],1.4 ± 1 mV
same,V1/2 shift due to cAMP,[6],5.2 ± 1.2 mV
same,EC50,[7],9.3 µM
same,EC50,[8],38 µM
same,EC50,[9],10.4 µM

# Where “and” joins values, the source holds several entries; their conditions need not be identical. Equal values may be shown once.
